1 substance from patent US20240417426A1 can be followed below.

Read-outs that look alike come from different tables or passages of the source.

For assay [1], the target named is Im7 immobilization unit (genetically modified colicin immunity protein 7 flanked by Cys-containing coiled-coil segments), covalently coupled to Sulfo-Link agarose beads.
The target is the same in assay [2]. The source holds these as a separate data set.
Assay [3] shares this target. This is another data set of the same source.

For “human calnexin (CNX) with PSC-cleavable C-terminal CL7-tag (from UniProt P27824 21-592)”, the EL Amount in assay [1] was found to be 39 mg. For the same substance, the FT Loss (%) in assay [2] is 25%; in assay [3], 30%.
